The values that follow come from ChEMBL document CHEMBL5053511, “Discovery of a Novel BCL-XL PROTAC Degrader with Enhanced BCL-2 Inhibition” (J Med Chem, 2021).

Protein sequences, listed by entry. Tags and fused reporters are not part of them.
UniProt P10415, whole entry: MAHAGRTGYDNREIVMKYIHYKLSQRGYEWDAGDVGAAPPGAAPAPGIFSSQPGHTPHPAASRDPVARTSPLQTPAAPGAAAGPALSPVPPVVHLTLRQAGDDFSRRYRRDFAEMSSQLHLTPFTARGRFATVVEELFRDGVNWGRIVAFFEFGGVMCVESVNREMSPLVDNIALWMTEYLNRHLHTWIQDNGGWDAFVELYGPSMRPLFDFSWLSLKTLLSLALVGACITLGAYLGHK

In the experiment the target is Apoptosis regulator Bcl-2 (Homo sapiens, UniProt P10415). Kind of experiment: Displacement of biotin-tagged MRPEPATIAQELRRIGDEFNA from C-terminal His-tagged human BCL-2 (1` to 211 residues) expressed in Escherichia coli measured after 2 hrs by AlphaScreen assay. The procedure, abridged:
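AlphaScreen displacement, run with or without VCB. Biotin-Bim (80 nM, for BCL-2) or biotin-Bad (16 nM, for BCL-XL) was combined with serially diluted compound and 6×His protein in 25 mM HEPES pH 7.5, 100 mM NaCl, 0.1% BSA, 0.005% Tween 20. Anti-His acceptor beads were added for 1 h at room temperature, then streptavidin donor beads for 30 min in the dark. Ki was fitted by one-site competitive model from peptide concentration and measured Kd values; reported as mean ± SD of at least two experiments in triplicate.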

pKd: −log10 of the molar value.

`CC1(C)CCC(c2ccc(Cl)cc2)=C(CN2CCN(c3ccc(C(=O)NS(=O)(=O)c4ccc(N[C@H](CCN5CCOCC5)CSc5ccccc5)c(S(=O)(=O)C(F)(F)F)c4)cc3)CC2)C1` [NAVITOCLAX]: the pKd is 9.19.
